US10172961B2 (priority 2014, dated 2019)

Amino acid sequences for entries named in this document (tags omitted). Residues count along the entry.
UniProt P06828, 110-539 limits assumed: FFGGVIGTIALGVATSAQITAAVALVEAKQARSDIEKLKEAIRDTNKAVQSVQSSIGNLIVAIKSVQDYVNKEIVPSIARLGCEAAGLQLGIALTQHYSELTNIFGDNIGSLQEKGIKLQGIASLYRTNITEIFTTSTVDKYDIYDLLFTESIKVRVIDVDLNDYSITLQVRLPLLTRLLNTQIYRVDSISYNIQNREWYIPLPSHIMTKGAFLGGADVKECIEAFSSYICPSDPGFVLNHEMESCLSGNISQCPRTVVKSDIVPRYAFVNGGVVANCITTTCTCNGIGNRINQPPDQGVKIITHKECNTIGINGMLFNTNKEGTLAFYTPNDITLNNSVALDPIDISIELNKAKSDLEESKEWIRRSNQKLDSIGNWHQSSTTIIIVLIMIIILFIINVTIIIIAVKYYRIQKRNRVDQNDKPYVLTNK
UniProt P06828, 19-109 partner limits assumed: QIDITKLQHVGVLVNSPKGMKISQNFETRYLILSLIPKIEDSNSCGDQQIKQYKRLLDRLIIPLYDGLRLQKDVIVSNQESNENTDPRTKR

Target: HPIV3 envelope glycoproteins (Human parainfluenza 3 virus, UniProt P06828)
Assay: cell-based
Set-up: species or system Human parainfluenza virus type 3
Conditions: for IC90: read-out: IC90 nM, in vitro efficacy

Row | Structure (SMILES) | IC90 | pIC50
1 | CC[C@H](C)[C@H](NC(=O)[C@H](CO)NC(=O)[C@H](CC(=O)O)NC(=O)[C@H](CC(C)C)NC(=O)[C@H](CCCCN)NC(=O)CNC(=O)[C@H](CC(N)=O)NC(=O)[C@H](CO)NC(=O)[C@H](CCCNC(=N)N)NC(=O)[C@H](CCCNC(=N)N)NC(=O)[C@@H](NC(=O)[C@H](Cc1c[nH]c2ccccc12)NC(=O)[C@H](CCC(=O)O)NC(=O)[C@H](CCCCN)NC(=O)[C@H](CO)NC(=O)[C@H](CCC(=O)O)NC(=O)[C@H](CCC(=O)O)NC(=O)[C@H](CC(C)C)NC(=O)[C@H](CC(=O)O)NC(=O)[C@H](CO)NC(=O)[C@H](CCCCN)NC(=O)[C@H](C)NC(=O)[C@H](CCCCN)NC(=O)[C@H](CC(N)=O)NC(=O)[C@H](CC(C)C)NC(=O)[C@@H](NC(=O)[C@@H](NC(=O)[C@H](CO)NC(=O)[C@@H](NC(=O)[C@H](CC(=O)O)NC(=O)[C@@H](NC(=O)[C@@H]1CCCN1C(=O)[C@H](CC(=O)O)NC(=O)[C@H](CC(C)C)NC(=O)[C@H](C)NC(=O)[C@@H](NC(C)=O)C(C)C)[C@@H](C)CC)[C@@H](C)CC)[C@@H](C)CC)C(C)C)[C@@H](C)CC)C(=O)NCC(=O)N[C@@H](CO)C(=O)NCC(=O)N[C@@H](CO)C(=O)N[C@@H](CSCC(=O)O[C@H]1CC[C@@]2(C)C(=CC[C@H]3[C@@H]4CC[C@H]([C@H](C)CCCC(C)C)[C@@]4(C)CC[C@@H]32)C1)C(N)=O [VG-chol] | > 1000 nM | 
2 | CC[C@H](C)[C@H](NC(=O)[C@H](CO)NC(=O)[C@H](CC(=O)O)NC(=O)[C@H](CC(C)C)NC(=O)[C@@H](NC(=O)[C@H](CCCCN)NC(=O)[C@H](CC(N)=O)NC(=O)[C@H](CO)NC(=O)[C@H](CCCNC(=N)N)NC(=O)[C@H](CCCNC(=N)N)NC(=O)[C@@H](NC(=O)[C@H](Cc1c[nH]c2ccccc12)NC(=O)[C@H](CCC(=O)O)NC(=O)[C@H](CCCCN)NC(=O)[C@H](CO)NC(=O)[C@H](CCC(=O)O)NC(=O)[C@H](CCC(=O)O)NC(=O)[C@H](CC(C)C)NC(=O)[C@H](CC(=O)O)NC(=O)[C@H](CO)NC(=O)[C@H](CCCCN)NC(=O)[C@@H](NC(=O)[C@H](CCCCN)NC(=O)[C@H](CC(N)=O)NC(=O)[C@H](CC(C)C)NC(=O)[C@@H](NC(=O)[C@@H](NC(=O)[C@H](CO)NC(=O)[C@@H](NC(=O)[C@H](CC(=O)O)NC(=O)[C@@H](NC(=O)[C@@H]1CCCN1C(=O)[C@H](CC(=O)O)NC(=O)[C@H](CC(C)C)NC(=O)[C@H](C)NC(=O)[C@@H](NC(C)=O)C(C)C)[C@@H](C)CC)[C@@H](C)CC)[C@@H](C)CC)C(C)C)[C@@H](C)CC)[C@@H](C)CC)[C@@H](C)CC)C(=O)NCC(=O)N[C@@H](CO)C(=O)NCC(=O)N[C@@H](CO)C(=O)NCC(=O)N[C@@H](CSCC(=O)NCCOCCOCCOCCOCCC(=O)O[C@H]1CC[C@@]2(C)C(=CC[C@H]3[C@@H]4CC[C@H]([C@H](C)CCCC(C)(C)O)[C@@]4(C)CC[C@@H]32)C1)C(N)=O [VIKI-PEG4-25^OHchol] | > 1000 nM | 
3 | CC[C@H](C)[C@H](NC(=O)[C@H](CO)NC(=O)[C@H](CC(=O)O)NC(=O)[C@H](CC(C)C)NC(=O)[C@@H](NC(=O)[C@H](CCCCN)NC(=O)[C@H](CC(N)=O)NC(=O)[C@H](CO)NC(=O)[C@H](CCCNC(=N)N)NC(=O)[C@H](CCCNC(=N)N)NC(=O)[C@@H](NC(=O)[C@H](Cc1c[nH]c2ccccc12)NC(=O)[C@H](CCC(=O)O)NC(=O)[C@H](CCCCN)NC(=O)[C@H](CO)NC(=O)[C@H](CCC(=O)O)NC(=O)[C@H](CCC(=O)O)NC(=O)[C@H](CC(C)C)NC(=O)[C@H](CC(=O)O)NC(=O)[C@H](CO)NC(=O)[C@H](CCCCN)NC(=O)[C@@H](NC(=O)[C@H](CCCCN)NC(=O)[C@H](CC(N)=O)NC(=O)[C@H](CC(C)C)NC(=O)[C@@H](NC(=O)[C@@H](NC(=O)[C@H](CO)NC(=O)[C@@H](NC(=O)[C@H](CC(=O)O)NC(=O)[C@@H](NC(=O)[C@@H]1CCCN1C(=O)[C@H](CC(=O)O)NC(=O)[C@H](CC(C)C)NC(=O)[C@H](C)NC(=O)[C@@H](NC(C)=O)C(C)C)[C@@H](C)CC)[C@@H](C)CC)[C@@H](C)CC)C(C)C)[C@@H](C)CC)[C@@H](C)CC)[C@@H](C)CC)C(=O)NCC(=O)N[C@@H](CO)C(=O)NCC(=O)N[C@@H](CO)C(=O)NCC(=O)N[C@@H](CSCC(=O)NCCOCCOCCOCCOCCOCCOCCOCCOCCOCCOCCOCCOCCOCCOCCOCCOCCOCCOCCOCCOCCOCCOCCOCCOCCC(=O)O[C@H]1CC[C@@]2(C)C(=CC[C@H]3[C@@H]4CC[C@H]([C@H](C)CCCC(C)C)[C@@]4(C)CC[C@@H]32)C1)C(N)=O [VIKI-PEG24-chol] | 3 nM | 
4 | CC[C@H](C)[C@H](NC(=O)[C@H](CO)NC(=O)[C@H](CC(=O)O)NC(=O)[C@H](CC(C)C)NC(=O)[C@H](CCCCN)NC(=O)CNC(=O)[C@H](CC(N)=O)NC(=O)[C@H](CO)NC(=O)[C@H](CCCNC(=N)N)NC(=O)[C@H](CCCNC(=N)N)NC(=O)[C@@H](NC(=O)[C@H](Cc1c[nH]c2ccccc12)NC(=O)[C@H](CCC(=O)O)NC(=O)[C@H](CCCCN)NC(=O)[C@H](CO)NC(=O)[C@H](CCC(=O)O)NC(=O)[C@H](CCC(=O)O)NC(=O)[C@H](CC(C)C)NC(=O)[C@H](CC(=O)O)NC(=O)[C@H](CO)NC(=O)[C@H](CCCCN)NC(=O)[C@H](C)NC(=O)[C@H](CCCCN)NC(=O)[C@H](CC(N)=O)NC(=O)[C@H](CC(C)C)NC(=O)[C@@H](NC(=O)[C@@H](NC(=O)[C@H](CO)NC(=O)[C@@H](NC(=O)[C@H](CC(=O)O)NC(=O)[C@@H](NC(=O)[C@@H]1CCCN1C(=O)[C@H](CC(=O)O)NC(=O)[C@H](CC(C)C)NC(=O)[C@H](C)NC(=O)[C@@H](NC(C)=O)C(C)C)[C@@H](C)CC)[C@@H](C)CC)[C@@H](C)CC)C(C)C)[C@@H](C)CC)C(=O)NCC(=O)N[C@@H](CO)C(=O)NCC(=O)N[C@@H](CO)C(=O)NCC(=O)N[C@@H](CS)C(N)=O [VG] | > 1000 nM | < 6.00
5 | CC[C@H](C)[C@H](NC(=O)[C@H](CO)NC(=O)[C@H](CC(=O)O)NC(=O)[C@H](CC(C)C)NC(=O)[C@H](CCCCN)NC(=O)CNC(=O)[C@H](CC(N)=O)NC(=O)[C@H](CO)NC(=O)[C@H](CCCNC(=N)N)NC(=O)[C@H](CCCNC(=N)N)NC(=O)[C@@H](NC(=O)[C@H](Cc1c[nH]c2ccccc12)NC(=O)[C@H](CCC(=O)O)NC(=O)[C@H](CCCCN)NC(=O)[C@H](CO)NC(=O)[C@H](CCC(=O)O)NC(=O)[C@H](CCC(=O)O)NC(=O)[C@H](CC(C)C)NC(=O)[C@H](CC(=O)O)NC(=O)[C@H](CO)NC(=O)[C@H](CCCCN)NC(=O)[C@H](C)NC(=O)[C@H](CCCCN)NC(=O)[C@H](CC(N)=O)NC(=O)[C@H](CC(C)C)NC(=O)[C@@H](NC(=O)[C@@H](NC(=O)[C@H](CO)NC(=O)[C@@H](NC(=O)[C@H](CC(=O)O)NC(=O)[C@@H](NC(=O)[C@@H]1CCCN1C(=O)[C@H](CC(=O)O)NC(=O)[C@H](CC(C)C)NC(=O)[C@H](C)NC(=O)[C@@H](NC(C)=O)C(C)C)[C@@H](C)CC)[C@@H](C)CC)[C@@H](C)CC)C(C)C)[C@@H](C)CC)C(=O)NCC(=O)N[C@@H](CO)C(=O)NCC(=O)N[C@@H](CO)C(=O)N[C@@H](CSCC(=O)NCCOCCOCCOCCOCCC(=O)O[C@H]1CC[C@@]2(C)C(=CC[C@H]3[C@@H]4CC[C@H]([C@H](C)CCCC(C)C)[C@@]4(C)CC[C@@H]32)C1)C(N)=O [VG-PEG4-chol] | 100 nM | 
6 | CC[C@H](C)[C@H](NC(=O)[C@H](CO)NC(=O)[C@H](CC(=O)O)NC(=O)[C@H](CC(C)C)NC(=O)[C@@H](NC(=O)[C@H](CCCCN)NC(=O)[C@H](CC(N)=O)NC(=O)[C@H](CO)NC(=O)[C@H](CCCNC(=N)N)NC(=O)[C@H](CCCNC(=N)N)NC(=O)[C@@H](NC(=O)[C@H](Cc1c[nH]c2ccccc12)NC(=O)[C@H](CCC(=O)O)NC(=O)[C@H](CCCCN)NC(=O)[C@H](CO)NC(=O)[C@H](CCC(=O)O)NC(=O)[C@H](CCC(=O)O)NC(=O)[C@H](CC(C)C)NC(=O)[C@H](CCC(N)=O)NC(=O)[C@H](CO)NC(=O)[C@H](CCCCN)NC(=O)[C@@H](NC(=O)[C@H](CCCCN)NC(=O)[C@H](CC(N)=O)NC(=O)[C@H](CC(C)C)NC(=O)[C@@H](NC(=O)[C@@H](NC(=O)[C@H](CO)NC(=O)[C@@H](NC(=O)[C@H](CC(=O)O)NC(=O)[C@@H](NC(=O)[C@@H]1CCCN1C(=O)[C@H](CC(=O)O)NC(=O)[C@H](CC(C)C)NC(=O)[C@H](C)NC(=O)[C@@H](NC(C)=O)C(C)C)[C@@H](C)CC)[C@@H](C)CC)[C@@H](C)CC)C(C)C)[C@@H](C)CC)[C@@H](C)CC)[C@@H](C)CC)C(=O)NCC(=O)N[C@@H](CO)C(=O)NCC(=O)N[C@@H](CO)C(=O)NCC(=O)N[C@@H](CSCC(=O)NCCOCCOCCOCCOCCOCCOCCOCCOCCOCCOCCOCCOCCOCCOCCOCCOCCOCCOCCOCCOCCOCCOCCOCCOCCC(=O)Oc1c(C)c(C)c2c(c1C)CC[C@@](C)(CCC[C@H](C)CCC[C@H](C)CCCC(C)C)O2)C(N)=O [VIQKI-PEG24-toc] | 10 nM | 
7 | CC[C@H](C)[C@H](NC(=O)[C@H](CO)NC(=O)[C@H](CC(=O)O)NC(=O)[C@H](CC(C)C)NC(=O)[C@@H](NC(=O)[C@H](CCCCN)NC(=O)[C@H](CC(N)=O)NC(=O)[C@H](CO)NC(=O)[C@H](CCCNC(=N)N)NC(=O)[C@H](CCCNC(=N)N)NC(=O)[C@@H](NC(=O)[C@H](Cc1c[nH]c2ccccc12)NC(=O)[C@H](CCC(=O)O)NC(=O)[C@H](CCCCN)NC(=O)[C@H](CO)NC(=O)[C@H](CCC(=O)O)NC(=O)[C@H](CCC(=O)O)NC(=O)[C@H](CC(C)C)NC(=O)[C@H](CC(=O)O)NC(=O)[C@H](CO)NC(=O)[C@H](CCCCN)NC(=O)[C@@H](NC(=O)[C@H](CCCCN)NC(=O)[C@H](CC(N)=O)NC(=O)[C@H](CC(C)C)NC(=O)[C@@H](NC(=O)[C@@H](NC(=O)[C@H](CO)NC(=O)[C@@H](NC(=O)[C@H](CC(=O)O)NC(=O)[C@@H](NC(=O)[C@@H]1CCCN1C(=O)[C@H](CC(=O)O)NC(=O)[C@H](CC(C)C)NC(=O)[C@H](C)NC(=O)[C@@H](NC(C)=O)C(C)C)[C@@H](C)CC)[C@@H](C)CC)[C@@H](C)CC)C(C)C)[C@@H](C)CC)[C@@H](C)CC)[C@@H](C)CC)C(=O)NCC(=O)N[C@@H](CO)C(=O)NCC(=O)N[C@@H](CO)C(=O)NCC(=O)N[C@@H](CSCC(=O)NCCOCCOCCOCCOCCOCCOCCOCCOCCOCCOCCOCCOCCOCCOCCOCCOCCOCCOCCOCCOCCOCCOCCOCCOCCC(=O)Oc1c(C)c(C)c2c(c1C)CC[C@@](C)(CCC[C@H](C)CCC[C@H](C)CCCC(C)C)O2)C(N)=O [VIKI-PEG24-toc] | 80 nM | 

pIC50: −log10 of the molar value.
